In this test the target is T1, CLK2 (Homo sapiens, UniProt P49760).
T1 construct: purchased Thermo Fisher (Life Technologies), Z'-LYTE Kinase Assay Kits
The test can be described thus: CLK2 kinase activity assay (Z-lyte, Ser/Thr 6 peptide). The note with it: Table 8 and text. Type of test: biochemical.

By UniProt entry, the sequences of proteins in these tests, tags left out.
UniProt P49760, whole entry: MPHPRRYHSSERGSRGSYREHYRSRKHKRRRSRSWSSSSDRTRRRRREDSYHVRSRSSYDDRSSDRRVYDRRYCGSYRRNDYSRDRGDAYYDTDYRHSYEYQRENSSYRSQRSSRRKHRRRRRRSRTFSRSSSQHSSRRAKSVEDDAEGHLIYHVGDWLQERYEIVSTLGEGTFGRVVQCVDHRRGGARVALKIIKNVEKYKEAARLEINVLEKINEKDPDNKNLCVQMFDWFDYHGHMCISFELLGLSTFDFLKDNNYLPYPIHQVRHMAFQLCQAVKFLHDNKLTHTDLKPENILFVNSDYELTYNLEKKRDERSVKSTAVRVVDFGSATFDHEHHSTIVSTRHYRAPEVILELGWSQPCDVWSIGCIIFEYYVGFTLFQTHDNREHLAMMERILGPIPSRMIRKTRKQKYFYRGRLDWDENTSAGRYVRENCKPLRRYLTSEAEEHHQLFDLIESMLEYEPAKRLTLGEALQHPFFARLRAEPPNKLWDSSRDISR

SMILES strings stand for the structures. pIC50: −log10 of the molar value.

A word on the pIC50: it is the negative decadic logarithm of the IC50, by convention in mol/L. Higher therefore signals a small IC50.

For the molecule `CN1CCN(c2cc(C(=O)Nc3cc4cc(-c5cnn(C)c5)ccc4cn3)ccn2)CC1` [Compound 12], the pIC50 was 8.70.

These data come from patent US20220062240A1, “METHODS OF TREATING CANCER USING A CLK INHIBITOR” (BioSplice Therapeutics, Inc., priority 2018, published 2022).
